# Measurements published in patent publication US10213438B2, “Alkaloid compounds for treating depression, substance addictions, and indications associated with chronic inflammation” (MyMD Pharmaceuticals, Inc., priority 2014, dated 2019).
# The chains behind the UniProt entries cited, without tags or fusion partners.
# UniProt P21397, whole entry, species assumed: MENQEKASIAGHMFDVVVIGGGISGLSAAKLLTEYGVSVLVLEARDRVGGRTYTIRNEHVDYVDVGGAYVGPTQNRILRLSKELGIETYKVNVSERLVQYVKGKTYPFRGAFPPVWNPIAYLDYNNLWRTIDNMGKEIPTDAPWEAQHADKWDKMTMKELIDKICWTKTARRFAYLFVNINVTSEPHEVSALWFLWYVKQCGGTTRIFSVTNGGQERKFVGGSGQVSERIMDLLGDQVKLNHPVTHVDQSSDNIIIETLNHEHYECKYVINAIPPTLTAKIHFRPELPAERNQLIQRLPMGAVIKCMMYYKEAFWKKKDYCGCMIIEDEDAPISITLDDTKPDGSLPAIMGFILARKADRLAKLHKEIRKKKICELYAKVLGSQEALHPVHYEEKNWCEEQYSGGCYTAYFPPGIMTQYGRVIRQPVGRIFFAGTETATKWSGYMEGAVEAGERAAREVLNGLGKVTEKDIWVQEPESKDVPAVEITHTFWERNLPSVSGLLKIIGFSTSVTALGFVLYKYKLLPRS
# Target: MAO-A (Homo sapiens, UniProt P21397)
# Assay: MAO-Glo luminescent assay, MAO-A
# Type: biochemical
# Conditions: 1 hour at room temperature, FIG. 5
# Source text: This example describes experiments for determining monoamine oxidase (MAO) inhibition for 2-(pyridin-3-yl)-2,3,4,7-tetrahydro-1H-azepine and other alkaloids. MAOs are enzymes located on the outer membrane of mitochondria and are involved in the catabolism of monoamine neurotransmitters. There are two well-characterized isoenzymes: MAO-A, which predominantly catabolizes serotonin and norepinephrine, and MAO-B, which preferentially catabolizes benzylamine and phenylethylamine. Dopamine and tyramine are metabolized by both isoforms.
# To detect the activity of MAO, a luminescent method (MAO-Glo Assay kit, from Promega, Cat # V1401) was used. In this method, a MAO substrate (a derivative of beetle luciferin provided in the kit) is mixed with the compound to be tested (in this case, myosmine and control compounds). Then, the MAO enzymes (either A or B, purchased separately) are added to the mixture and incubated with the reaction for 1 hour at room temperature. The MAO enzymes, if not inhibited by the test compound, will convert the substrate into methyl ester luciferin. Finally, a luciferin detection reagent (provided by the kit) is added (20 minutes at room temperature) to stop the MAO reaction and convert methyl ester luciferin into D-luciferin. […] The luminescent signal is measured and recorded using a luminometer. […]
compound,measurement,value
C#CCN(C)CCCOc1ccc(Cl)cc1Cl [clorgyline],inhibition of MAO-A (activity curve),greatly shifted leftward
